Measurements: ChEMBL document CHEMBL3243975 (J Med Chem, 1978)

Species on record: Sus scrofa
Experiment: Binding affinity to pig ileum opioid receptor
Format: tissue-based

Work on C=CCN1CC[C@]23c4c5ccc(O)c4O[C@H]2[C@@H](O)C=C[C@H]3[C@H]1C5 [NALORPHINE] yielded a Ke of 4.47 nM.
